Measured values published in US20170239455A1 (priority 2014, published 2017).

Conditions: water content 0.2%, heptane phase read at 525 nm

II [molecular iodine]
molecular iodine stored in absolute ethanol maintained as I2: over 50%
